We go through 2 substances from patent publication US20250361252A1 (EVER Neuro Pharma GmbH, priority 2022, published 2025).

The nature of data set [1]: In vitro stability in human liver S9 homogenate.

On to apomorphine monophosphate, for which the “conversion of apomorphine monophosphate to apomorphine” value in data set [1] is reported as “No conversion of prodrug observed”.
For the substance “Apomorphine Monophosphate Magnesium Salt [VIR-1-097-Mg]”, the “solubility in water” value is listed as “Reduced solubility in water”.
